Yeast mating assay 2: variants of the scFv Ab-95

Data: MIT Lincoln Laboratory AlphaSeq set, Engelhart et al. 2022, doi:10.1038/s41597-022-01779-4, as distributed in FLAb.

The target is the same throughout: PDVDLGDISGINAS, from the HR2 region of SARS-CoV-2 spike.

The variants keep the heavy chain, the linker and the frameworks of Ab-95 (scFv order VH, three GGGGS repeats, VL).
VH: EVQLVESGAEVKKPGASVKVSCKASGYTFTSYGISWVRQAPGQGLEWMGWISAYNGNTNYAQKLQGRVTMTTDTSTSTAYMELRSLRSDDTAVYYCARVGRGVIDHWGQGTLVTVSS
VL: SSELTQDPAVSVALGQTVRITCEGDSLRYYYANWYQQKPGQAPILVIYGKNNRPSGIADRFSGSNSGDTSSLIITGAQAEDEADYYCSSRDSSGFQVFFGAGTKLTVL

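The parent was found by panning a naive human phage display library on the peptide. Library AAYL52 holds single substitutions and randomly drawn double and triple substitutions in the CDRs. The assay is AlphaSeq: two haploid yeast populations carry antibody and antigen on their surface. After mating in shaken culture at 30 °C for 16 h, diploids were selected and their barcode pairs sequenced. The ratio of observed to expected reads was calibrated, replicate by replicate, on BCL2-family standards whose Kd was known from biolayer interferometry. Each pool was mated in three replicate cultures.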

Substitutions are numbered in sequence along the VL above, starting at 1 (not Kabat). This list gathers variants with a substitution at Y31 (VL, numbered from residue 1). The Kd shown is the geometric mean over detected replicates; a lower Kd is a better binder. An entry "nd" has no value in the source: the pair was not observed among the diploids in any replicate. This suggests poor binding but is not conclusive. Empty control strains, which show no peptide, gave a signal in 28% of pairings with library AAYL52; the median was 8.2 µM and 95% of these signals were weaker than 800 nM. No background was subtracted. For reference, the parent read 200 nM as the reference entry and 180 nM as a member of this library.

The variant Y31F K50C G94W gave 210 µM (1 of 3 replicates).
The variant Y31P S55G Q96F gave 69 nM (3 of 3 replicates).
The variant L27K Y31C S88M gave 98 nM (3 of 3 replicates).
The variant E23Q Y31T S93N gave 92 nM (3 of 3 replicates).
The variant Y31W D91A G94N gave 1.5 µM (2 of 3 replicates).
The variant E23I Y31C V97W gave 340 nM (3 of 3 replicates).
The variant Y31G N33E S89I gave 2.2 µM (3 of 3 replicates).
The variant E23C S26C Y31E gave 180 nM (3 of 3 replicates).
The variant Y31R S89A V97Y gave 630 nM (3 of 3 replicates).
The variant L27R Y31F F98Y gave 5.1 µM (1 of 3 replicates).
The variant Y31H S89T V97S gave 270 nM (3 of 3 replicates).
The variant Y30Q Y31N N51V gave 20 nM (3 of 3 replicates).
The variant E23L Y31G N33Q gave 410 nM (3 of 3 replicates).
The variant Y31G S55F D91S gave 28 nM (3 of 3 replicates).
The variant S26F Y31G G49R gave 20 µM (2 of 3 replicates).
The variant Y31N R53W P54C gave 19 µM (2 of 3 replicates).
The variant Y31V S93G gave 2.5 µM (3 of 3 replicates).
The variant Y31C N51F G94C gave nd (0 of 3 replicates).
The variant Y31E R90N F95W gave 420 nM (3 of 3 replicates).
The variant Y31H Q96R F98E gave 65 nM (3 of 3 replicates).
The variant Y29M Y31K V97T gave nd (0 of 3 replicates).
The variant D25N Y31P G94E gave nd (0 of 3 replicates).
The variant Y31T R53K F98E gave 970 nM (3 of 3 replicates).
The variant Y31H R53L gave 70 nM (3 of 3 replicates).
The variant Y31H S89N G94C gave 120 nM (3 of 3 replicates).
The variant G24F Y31C S89Q gave nd (0 of 3 replicates).
The variant S26E Y29N Y31Q gave 100 nM (3 of 3 replicates).
The variant L27I Y31R S89N gave 790 nM (3 of 3 replicates).
The variant G24T Y31D K50E gave 4.7 µM (3 of 3 replicates).
The variant Y31I K50E Q96M gave 270 nM (3 of 3 replicates).
The variant G24L Y31L V97W gave 5.8 µM (1 of 3 replicates).
The variant Y31T G49L K50T gave nd (0 of 3 replicates).
The variant Y31R S89H R90C gave nd (0 of 3 replicates).
The variant Y31I S55W gave 1.5 µM (3 of 3 replicates).
The variant Y31G gave 70 nM (3 of 3 replicates).

The first 2 variants above that were never detected:

| changes | Kd | replicates with signal |
|---|---|---|
| Y31C N51F G94C | nd | 0 of 3 |
| Y29M Y31K V97T | nd | 0 of 3 |